Test results published in ChEMBL document CHEMBL2163209, “Selective dual inhibitors of CYP19 and CYP11B2: targeting cardiovascular diseases hiding in the shadow of breast cancer” (J Med Chem, 2012).

Columns and labels:
[1] = molecular target: T1, Cytochrome P450 11B2, mitochondrial (Homo sapiens, UniProt P19099); assay: Inhibition of human CYP11B2 expressed in V79MZh cells using [14C]-11-deoxycorticosterone as substrate by HPTLC/phosphoimaging method; assay type: cell-based
T1 sequence (P19099 whole entry): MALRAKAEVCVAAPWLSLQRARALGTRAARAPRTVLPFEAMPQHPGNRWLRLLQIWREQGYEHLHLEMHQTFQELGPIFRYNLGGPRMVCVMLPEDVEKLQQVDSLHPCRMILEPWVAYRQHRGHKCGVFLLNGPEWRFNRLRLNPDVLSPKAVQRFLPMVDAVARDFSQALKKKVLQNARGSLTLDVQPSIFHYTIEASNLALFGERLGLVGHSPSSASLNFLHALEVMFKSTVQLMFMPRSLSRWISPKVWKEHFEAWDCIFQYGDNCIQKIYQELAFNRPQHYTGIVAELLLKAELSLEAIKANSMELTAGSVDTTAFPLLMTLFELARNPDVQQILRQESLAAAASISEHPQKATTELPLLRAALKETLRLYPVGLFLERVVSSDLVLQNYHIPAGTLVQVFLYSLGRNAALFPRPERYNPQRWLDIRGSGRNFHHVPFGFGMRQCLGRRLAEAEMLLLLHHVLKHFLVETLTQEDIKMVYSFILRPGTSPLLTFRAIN

V79MZh = assay: Selectivity factor, ratio of IC50 for human CYP11B1 to IC50 for human CYP11B2 expressed in V79MZh cells; assay type: cell-based

IC50 [1]: 674 nM
Compound: CCOc1cc2c(cc1-c1cccnc1)CCC(=O)N2
Ratio IC50 (V79MZh): 5.5
